## AlphaSeq binding of Ab-14 light chain variants to a spike HR2 peptide

The measurements come from Engelhart et al. 2022 (doi:10.1038/s41597-022-01779-4) through the FLAb antibody collection.

Target peptide (SARS-CoV-2 spike, HR2 region): PDVDLGDISGINAS

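In library AAYL50, one, two or three CDR residues were substituted; doubles and triples were drawn at random. AlphaSeq pools MATa yeast showing the antibodies with MATalpha yeast showing the peptide. Pairs that bind mate more often; barcode pairs of the diploids are counted by sequencing. A regression on co-assayed BCL2-family reference pairs converts the normalised counts of each replicate to an apparent Kd. Mating was done three times.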

The variants keep the heavy chain, the linker and the frameworks of Ab-14 (scFv order VH, three GGGGS repeats, VL).
VH: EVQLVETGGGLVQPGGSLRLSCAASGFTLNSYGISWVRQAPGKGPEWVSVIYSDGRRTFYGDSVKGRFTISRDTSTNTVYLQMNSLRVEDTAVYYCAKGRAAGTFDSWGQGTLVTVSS
VL: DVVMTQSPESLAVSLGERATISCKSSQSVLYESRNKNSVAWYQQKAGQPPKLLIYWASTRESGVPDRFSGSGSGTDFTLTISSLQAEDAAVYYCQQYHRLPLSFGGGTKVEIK

Each variant's VL is given in full.
Values are log10 of the apparent Kd in nM; lower means stronger binding.
Averages over replicates are reported, and they cover detected replicates only.
An entry "no signal" has no value in the source: the pair was not observed among the diploids in any replicate. This suggests poor binding but is not conclusive.
Three control strains display no target. For library AAYL50, 18% of the pairings with them gave a signal, with a median of 4.19 and one signal in twenty below 2.99, so weak values seen in few replicates may be background.

| # | VL | log10 Kd (nM), mean | replicates with signal |
|---|---|---|---|
| 1 | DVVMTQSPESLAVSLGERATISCKSSQSVLYESRQKNSVAWYQQKAGQPPKLLIYYASTVESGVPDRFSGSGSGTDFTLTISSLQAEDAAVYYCQQYHRLPLSFGGGTKVEIK | 3.06 | 1/3 |
| 2 | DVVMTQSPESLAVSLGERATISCKSSQRVLYKSRNKNSVAWYQQKAGQPPKLLIYWASTRESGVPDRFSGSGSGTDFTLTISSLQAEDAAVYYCQQYHRLALSFGGGTKVEIK | no signal | 0/3 |
| 3 | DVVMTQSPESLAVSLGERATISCKSSQSKLYESRNKNSVAWYQQKAGQPPKLLIYWNSTRESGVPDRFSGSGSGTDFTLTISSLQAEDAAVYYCQQYHRNPLSFGGGTKVEIK | 4.02 | 2/3 |
| 4 | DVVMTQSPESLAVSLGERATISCKSSQSVVYESRNKNSVAWYQQKAGQPPKLLIYIASTRESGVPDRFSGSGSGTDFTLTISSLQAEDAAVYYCQQYHRLPTSFGGGTKVEIK | 3.79 | 3/3 |
| 5 | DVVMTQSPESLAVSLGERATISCKSSQSVLMESRNKWSVAWYQQKAGQPPKLLIYWASTRESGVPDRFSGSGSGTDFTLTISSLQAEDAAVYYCQQYYRLPLSFGGGTKVEIK | 1.66 | 3/3 |
| 6 | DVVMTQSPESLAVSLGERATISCGSSQSVLYESRNKNSVAWYQQKAGQPPKLLIYWASTRTSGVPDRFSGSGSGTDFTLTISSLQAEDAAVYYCQQYHRLPWSFGGGTKVEIK | 4.86 | 1/3 |
| 7 | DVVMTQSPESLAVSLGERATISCKSSQSVLYESRNKNSVAWYQQKAGQPPKLLIYWPSTREIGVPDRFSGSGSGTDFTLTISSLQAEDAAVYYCQGYHRLPLSFGGGTKVEIK | 3.91 | 1/3 |
| 8 | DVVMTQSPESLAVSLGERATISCKSSQMVRYESRNKNSVAWYQQKAGQPPKLLIYWASTRESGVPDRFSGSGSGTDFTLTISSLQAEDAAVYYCQQYHRKPLSFGGGTKVEIK | 4.06 | 2/3 |
| 9 | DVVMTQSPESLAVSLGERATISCKSSQSVLYGSRNKNSHAWYQQKAGQPPKLLIYEASTRESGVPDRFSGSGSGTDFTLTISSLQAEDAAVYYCQQYHRLPLSFGGGTKVEIK | 1.14 | 3/3 |
| 10 | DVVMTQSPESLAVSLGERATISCKSSQSVLYESRGKNSVAWYQQKAGQPPKLLIYWASTREKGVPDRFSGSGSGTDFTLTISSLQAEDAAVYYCQQYHRLSLSFGGGTKVEIK | 1.61 | 3/3 |
| 11 | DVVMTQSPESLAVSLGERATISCKSSQSVLYLSRNKQSVAWYQQKAGQPPKLLIYWASTRESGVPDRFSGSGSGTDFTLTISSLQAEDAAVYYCQQYWRLPLSFGGGTKVEIK | 1.54 | 3/3 |
| 12 | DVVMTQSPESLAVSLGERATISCKSSQSVLYESRNKNSVKWYQQKAGQPPKLLIYWADTRESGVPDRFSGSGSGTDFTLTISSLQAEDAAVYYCQQIHRLPLSFGGGTKVEIK | no signal | 0/3 |
| 13 | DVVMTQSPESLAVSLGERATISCKSSQEVLYESRNKKSVAWYQQKAGQPPKLLIYWASTRESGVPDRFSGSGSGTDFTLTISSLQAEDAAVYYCQLYHRLPLSFGGGTKVEIK | 3.54 | 3/3 |
| 14 | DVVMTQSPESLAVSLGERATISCQSSQSVLYENRNHNSVAWYQQKAGQPPKLLIYWASTRESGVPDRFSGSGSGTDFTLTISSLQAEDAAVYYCQQYHRLPLSFGGGTKVEIK | 1.17 | 3/3 |
| 15 | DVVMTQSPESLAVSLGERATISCKSSQSVLYESRKKCSVAWYQQKAGQPPKLLIYWASTRESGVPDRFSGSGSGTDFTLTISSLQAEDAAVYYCQQYHRDPLSFGGGTKVEIK | 2.84 | 1/3 |
| 16 | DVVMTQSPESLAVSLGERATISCKSSQSVLVESRNNNSVAWYQQKAGQPPKLLIYWASTRESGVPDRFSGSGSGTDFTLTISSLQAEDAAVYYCQQYHRAPLSFGGGTKVEIK | 1.12 | 3/3 |
| 17 | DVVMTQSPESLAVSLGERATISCKSSQSVLYESRNKNYVAWYQQKAGQPPKLLIYWATTREHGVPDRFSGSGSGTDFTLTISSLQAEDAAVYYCQQYHRLPLSFGGGTKVEIK | no signal | 0/3 |
| 18 | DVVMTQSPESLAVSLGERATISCKSSQSVLYFSRNKNSYAWYQQKAGQPPKLLIYWASTRESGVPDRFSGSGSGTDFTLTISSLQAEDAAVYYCQPYHRLPLSFGGGTKVEIK | 4.04 | 2/3 |
| 19 | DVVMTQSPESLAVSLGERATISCKTSQSVLYESRNKNSVAWYQQKAGQPPKLLIYWASTRESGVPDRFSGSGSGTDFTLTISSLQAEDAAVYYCQQYHRLHLSFGGGTKVEIK | 2.13 | 3/3 |
| 20 | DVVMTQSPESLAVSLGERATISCKSSQSVLYESRNKWSVAWYQQKAGQPPKLLIYWASTAESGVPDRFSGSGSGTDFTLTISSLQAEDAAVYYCQSYHRLPLSFGGGTKVEIK | 3.52 | 1/3 |
| 21 | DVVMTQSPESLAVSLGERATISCKSSQSVLYESRNKTRVAWYQQKAGQPPKLLIYWASTREHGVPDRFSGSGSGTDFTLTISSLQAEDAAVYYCQQYHRLPLSFGGGTKVEIK | 5.84 | 2/3 |
| 22 | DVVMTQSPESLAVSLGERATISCKSSISVLYESRNKNSVAWYQQKAGQPPKLLIYWASTRESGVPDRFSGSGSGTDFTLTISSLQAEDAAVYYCQQYHWLPLIFGGGTKVEIK | 1.28 | 3/3 |
| 23 | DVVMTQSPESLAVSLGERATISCKSSQSVLYESRNKNSVAWYQQKAGQPPKLLIYWASTRESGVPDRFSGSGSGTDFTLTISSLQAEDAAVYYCQQVRRMPLSFGGGTKVEIK | 0.62 | 3/3 |
| 24 | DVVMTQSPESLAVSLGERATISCKSSQSVLYESRNKNKVEWYQQKAGQPPKLLIYWASTRESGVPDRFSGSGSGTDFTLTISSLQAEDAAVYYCQQYLRLPLSFGGGTKVEIK | no signal | 0/3 |
| 25 | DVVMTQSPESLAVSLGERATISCKSSQSVLYESRNKRSVAWYQQKAGQPPKLLIYCASTRESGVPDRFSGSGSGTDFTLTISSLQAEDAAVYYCAQYHRLPLSFGGGTKVEIK | 4.49 | 3/3 |
| 26 | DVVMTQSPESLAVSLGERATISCKMSQSVLYESRNKNSLAWYQQKAGQPPKLLIYWASTRISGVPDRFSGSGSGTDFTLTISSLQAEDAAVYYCQQYHRLPLSFGGGTKVEIK | 0.17 | 3/3 |

Picked from the list: the 2 lowest averages where every replicate gave a value.

{"VL": "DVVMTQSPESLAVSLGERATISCKMSQSVLYESRNKNSLAWYQQKAGQPPKLLIYWASTRISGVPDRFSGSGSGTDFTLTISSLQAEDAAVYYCQQYHRLPLSFGGGTKVEIK", "log10 Kd (nM), mean": "0.17", "replicates with signal": "3/3"}
{"VL": "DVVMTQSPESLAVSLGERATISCKSSQSVLYESRNKNSVAWYQQKAGQPPKLLIYWASTRESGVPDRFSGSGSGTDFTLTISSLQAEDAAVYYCQQVRRMPLSFGGGTKVEIK", "log10 Kd (nM), mean": "0.62", "replicates with signal": "3/3"}